According to publication PMC5460201, “Bacterial protease uses distinct thermodynamic signatures for substrate recognition” (Scientific Reports, 2017):
Like-named read-outs stand apart in the source and are kept apart here.

Protein sequences, listed by entry. Tags and fused reporters are not part of them. Residues count along the entry.
UniProt F8WQK8, 22-717 S652A: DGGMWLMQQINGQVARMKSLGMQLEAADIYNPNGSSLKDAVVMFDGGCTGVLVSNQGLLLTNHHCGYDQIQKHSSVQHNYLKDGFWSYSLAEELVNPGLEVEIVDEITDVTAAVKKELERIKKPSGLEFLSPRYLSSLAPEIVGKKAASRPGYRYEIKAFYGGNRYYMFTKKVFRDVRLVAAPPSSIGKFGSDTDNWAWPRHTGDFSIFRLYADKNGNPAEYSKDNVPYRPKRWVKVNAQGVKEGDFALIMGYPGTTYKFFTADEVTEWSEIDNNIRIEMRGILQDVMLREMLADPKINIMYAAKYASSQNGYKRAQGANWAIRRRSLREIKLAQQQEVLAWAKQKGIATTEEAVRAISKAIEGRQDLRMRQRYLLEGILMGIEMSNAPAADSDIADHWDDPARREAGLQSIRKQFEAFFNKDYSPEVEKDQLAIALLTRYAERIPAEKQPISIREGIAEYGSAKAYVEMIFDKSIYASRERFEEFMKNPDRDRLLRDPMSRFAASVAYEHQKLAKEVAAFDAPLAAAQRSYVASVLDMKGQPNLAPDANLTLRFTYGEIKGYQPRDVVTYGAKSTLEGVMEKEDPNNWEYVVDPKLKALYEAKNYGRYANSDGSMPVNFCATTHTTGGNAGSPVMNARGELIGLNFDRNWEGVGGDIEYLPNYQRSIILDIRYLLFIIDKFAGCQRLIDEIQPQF

Target: T1, PeDPP11 (PeDPP11_22-717 S652A) (Porphyromonas endodontalis, UniProt F8WQK8, S652A)
T1 construct: genes encoding for C-terminal 6xHis-tagged PeDPP11_22-717 S652A and PgDPP11_22-720 S655A in the pET-22b(+) vector; 6xHis (C); made in house; host or cells: E. coli BL21(DE3)pLysS
Test: Isothermal titration calorimetry (ITC) of peptide binding to PeDPP11
Protocol: All experiments were carried out in 10 mM Hepes-NaOH pH 7.4, 100 mM NaCl. Both the enzymes and the peptides were dissolved in the same buffer. The bindings were analysed with a MicroCal^TM iTC200 microcalorimeter (GE Healthcare, Life Sciences) equilibrated at the respective temperature. […] Every injection was carried out over a period of 4 s with a spacing of 110 s between the injections. […] These corrected values were plotted against the ratio peptide vs. protein concentration in the cell to generate the binding isotherm. Nonlinear least-squares fitting using Origin version 7.0 (Microcal) was used to obtain the association constants (K a), heats of binding (ΔH) and stoichiometries. […] The reported values are averages of at least two independent measurements.

For `CC(C)C[C@H](N)C(=O)N[C@@H](CC(=O)O)C(=O)O` [LD], the Kd was 1.8 ± 0.2 µM.
Work on `CC(C)C[C@H](N)C(=O)N[C@@H](CC(=O)O)C(=O)N[C@H](C(=O)N[C@@H](Cc1c[nH]c2ccccc12)C(=O)O)C(C)C` [LDVW, Leu-Asp-Val-Trp] yielded a Kd of 2.8 ± 0.3 µM, a Kd (ITC, 5 °C (278 K), 10 mM Hepes-NaOH pH 7.4, 100 mM NaCl, averages of at least two independent measurements) of 17.3 ± 2.2 µM and a Kd (ITC, 20 °C (293 K), 10 mM Hepes-NaOH pH 7.4, 100 mM NaCl, averages of at least two independent measurements) of 5.6 ± 0.4 µM.
